This test in a line: Inhibition of human alpha thrombin by surface plasmon resonance assay. On the technique in general: In SPR one partner is held on a chip, and binding of the other changes the refractive index at the surface.

Usually pKd stands for the Kd on a negative log10 scale, so that one unit is a factor of ten.

pKd: −log10 of the molar value.

Compound `CCCNC(=O)[C@@H]1CCCN1C(=O)[C@H](N)C(c1ccccc1)c1ccccc1` gave a pKd of 5.51.

These data come from ChEMBL document CHEMBL1138481, “Compounds binding to the S2-S3 pockets of thrombin” (J Med Chem, 2009).
